{"sequences": {"note": "The chains behind the UniProt entries cited, without tags or fusion partners.", "UniProt P14902, whole entry": "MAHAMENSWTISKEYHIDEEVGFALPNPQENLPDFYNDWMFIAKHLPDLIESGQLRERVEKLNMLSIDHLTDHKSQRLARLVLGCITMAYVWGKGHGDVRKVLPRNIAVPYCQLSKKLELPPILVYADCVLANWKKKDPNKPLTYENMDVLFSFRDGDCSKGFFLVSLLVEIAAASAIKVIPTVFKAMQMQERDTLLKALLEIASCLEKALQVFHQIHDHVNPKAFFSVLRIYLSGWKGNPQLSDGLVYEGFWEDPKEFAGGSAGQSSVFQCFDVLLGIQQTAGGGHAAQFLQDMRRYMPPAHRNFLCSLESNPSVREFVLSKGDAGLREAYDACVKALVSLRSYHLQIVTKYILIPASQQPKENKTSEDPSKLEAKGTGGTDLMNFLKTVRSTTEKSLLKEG"}, "source": "patent US20200352931A1", "about": "“OXALAMIDES AS MODULATORS OF INDOLEAMINE 2,3-DIOXYGENASE” (PHENEX DISCOVERY VERWALTUNGS-GMBH, priority 2017, published 2020)", "target": "Indoleamine 2,3-Dioxygenase (IDO1) in SKOV-3 cells (Homo sapiens, UniProt P14902)", "assay": "SKOV-3 cellular indoleamine 2,3-dioxygenase assay", "conditions": "read-out: cell based activity (IC50), 50 ng/ml Interferon gamma, 100 μM L-Tryptophan, 24 hours, N-Formylkynurenin fluorescence", "protocol": "SKOV-3 Cellular Indoleamine 2,3-Dioxygenase Assay\nSKOV-3 cells were obtained from the American Type Culture Collection (ATCC® HTB-77™) and maintained in McCoy's medium (Pan Biotech) supplemented with 10% fetal bovine serum and 1% Penicilin/Streptomycin. Cells were kept at 37° C. in a humidified incubator with 5% CO2. For assay preparation, cells were seeded at a density of 2*10^5/m into black clear bottom 96 well plates in 100 μl medium/well supplemented with 50 ng/ml Interferon gamma (eBioscience, Thermo Fisher Scientific). After cells fully adhered to the plate, dilution series of compounds were added in medium containing additional L-Tryptophan to a final L-Tryptophan concentration of 100 μM. The cells were incubated for 24 hours. Detection of produced N-Formylkynurenin was performed by addition of 3-Methylpiperidine to a final concentration of 200 mM. The plates were sealed and heated to 65° C. for 20 minutes in a water bath. After cooling the fluorescence of each well was recorded with a Victor™ X4 (PerkinElmer) plate reader at an emission wavelength of 535 nm and excitation at 405 nm (Tomek et al.; Anal Bioanal Chem (2013) 405:2515-2524., Tomek et al.; Biochim Biophys Acta. 2015 September; 1850(9):1772-80)."}
{"smiles": "O=C(Nc1ccc(C(F)(F)F)cc1)C(=O)N1CCC2(CC1)OCc1cc(Cl)ccc12", "values": [{"measurement": "IC50", "result": "100 to 1000", "unit": "nM"}]}
